Where a name gives a salt, the structure may show the parent alone.
Target: T1, human NTCP (Homo sapiens, UniProt Q14973)
T1 sequence (Q14973 1-349): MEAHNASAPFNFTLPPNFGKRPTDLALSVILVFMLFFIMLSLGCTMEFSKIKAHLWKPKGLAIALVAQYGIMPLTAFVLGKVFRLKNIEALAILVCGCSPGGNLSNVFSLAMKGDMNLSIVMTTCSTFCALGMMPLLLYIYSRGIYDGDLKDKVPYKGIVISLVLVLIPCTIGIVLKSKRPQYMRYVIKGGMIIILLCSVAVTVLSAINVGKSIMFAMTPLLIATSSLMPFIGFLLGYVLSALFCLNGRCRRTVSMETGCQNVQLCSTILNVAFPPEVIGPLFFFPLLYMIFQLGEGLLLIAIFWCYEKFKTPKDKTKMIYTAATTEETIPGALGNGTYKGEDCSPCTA
Assay: Screening fluorescent competitive Myrcludex B-FITC binding assay (96-well, 10 µM drug)
Details: not given

Structure (SMILES)	%NTCP binding
Cc1c(Cl)cccc1Nc1ncccc1C(=O)O.NCCCC[C@H](N)C(=O)O [Clonixin Lysinate]	94.4472%
C/C(=C(/CCO)SSCC1CCCO1)N(C=O)Cc1cnc(C)nc1N.Cl (stereo not drawn) [Fursultiamine Hydrochloride]	102.478%
COc1ccc2cc([C@@H](C)C(=O)[O-])ccc2c1.[Na+] [(R) -Naproxen sodium salt]	82.4935%
CNCC[C@@H](Oc1cccc2ccccc12)c1cccs1.Cl [(R)-Duloxetine hydrochloride]	91.6635%
C[C@]12CC[C@@H](O)C[C@H]1CC[C@@H]1[C@@H]2CC[C@]2(C)C(=O)CC[C@@H]12 [3-alpha-Hydroxy-5-beta-androstan-17-one]	81.9346%

Same assay, conditions: 0.5 h, read-out: %NTCP binding

Structure (SMILES)	remaining activity at 10 µM
CCOc1ccccc1OCC1CNCCO1 (stereo not drawn) [Viloxazine hydrochloride]	104%
CN1C(C(=O)Nc2ccccn2)=C(O)c2sccc2S1(=O)=O [Tenoxicam]	78.6%
NNc1nncc2ccccc12 [Hydralazine hydrochloride]	67.2%
Clc1ccc2nsnc2c1NC1=NCCN1 [Tizanidine HCl]	78.1%
C[C@]12CC[C@H](O)C[C@@H]1CC[C@@H]1[C@@H]2CC[C@]2(C)C(=O)CC[C@@H]12 [Epiandrosterone]	71.2%
CCCN[C@H]1CCc2nc(N)sc2C1 [Pramipexole dihydrochloride]	110%
CNCC(O)c1ccc(O)c(O)c1 (stereo not drawn) [Racepinephrine HCl]	104%
CCCc1cc(=O)[nH]c(=S)[nH]1 [Propylthiouracil]	78.9%
CS(=O)(=O)Nc1ccc([N+](=O)[O-])cc1Oc1ccccc1 [Nimesulide]	75.9%
CN(C)CCC=C1c2ccccc2C=Cc2ccccc21 [Cyclobenzaprine hydrochloride]	75.9%
c1ccc([C@H]2CN3CCSC3=N2)cc1 [Levamisole hydrochloride]	86.6%
CC(C)c1cccc(C(C)C)c1O [Propofol]	90.8%
O=C(O)c1cccnc1 [Niacin]	102%
C=CCOc1ccccc1OCC(O)CNC(C)C (stereo not drawn) [Oxprenolol hydrochloride]	71.4%
C[C@]12CC[C@@H](O)C[C@@H]1CC[C@@H]1[C@@H]2CC[C@]2(C)C(=O)CC[C@@H]12 [Androsterone]	82%
Nc1nc(=O)n([C@@H]2CS[C@H](CO)O2)cc1F [(-)-Emtricitabine]	78.2%
Nc1ccc(S(=O)(=O)Nc2ncccn2)cc1 [Sulfadiazine]	112%
NCCc1c[nH]cn1 [Histamine dihydrochloride]	50.6%
COc1ccc2cc([C@H](C)C(=O)O)ccc2c1 [Naproxen]	111%

Structure (SMILES)	remaining activity at 10 µM
Nc1c2c(nc3ccccc13)CCCC2 [Tacrine hydrochloride]	58.2%
N[C@@H]1C[C@H]1c1ccccc1 [Tranylcypromine hydrochloride]	83.2%
CNCCCC1c2ccccc2C=Cc2ccccc21 [Protriptyline hydrochloride]	83.3%
Cc1ncc(C[n+]2csc(CCO)c2C)c(N)n1 [Thiamine hydrochloride]	84.4%
NC(N)=Nc1nc(CSCCC(N)=NS(N)(=O)=O)cs1 [Famotidine]	91.9%
CNCCC=C1c2ccccc2CCc2ccccc21 [Nortriptyline hydrochloride]	94.2%
NCCCC(O)(P(=O)(O)O)P(=O)(O)O [Alendronate sodium]	69.5%
COC(=O)[C@H](c1ccccc1Cl)N1CCc2sccc2C1 [Clopidogrel]	54.1%
Cc1cccc(C)c1OCC(C)N (stereo not drawn) [Mexiletine hydrochloride]	87.2%
CN1CCCCC1CCN1c2ccccc2Sc2ccc([S+](C)[O-])cc21 (stereo not drawn) [Mesoridazine besylate]	66.1%
Cn1cnc([N+](=O)[O-])c1Sc1ncnc2nc[nH]c12 [Azathioprine]	101%
NCCc1ccc(O)c(O)c1 [Dopamine hydrochloride]	132%
NNCCc1ccccc1 [Phenelzine sulfate]	62.4%
CC(C)NCC(O)COc1ccc(CCOCC2CC2)cc1 (stereo not drawn) [Betaxolol hydrochloride]	65.9%
OCCOCCN1CCN(C2=Nc3ccccc3Sc3ccccc32)CC1 [Quetiapine hemifumarate]	70.7%
O=P1(N(CCCl)CCCl)NCCCO1 (stereo not drawn) [Cyclophosphamide]	105%
C#CCN[C@@H]1CCc2ccccc21 [Rasagiline]	57%
CNCCCC12CCC(c3ccccc31)c1ccccc12 [Maprotiline hydrochloride]	49.3%
Clc1cccc(Cl)c1N=C1NCCN1 [Clonidine hydrochloride]	75.4%

Same assay, conditions: screen, 10 µM drug, Myrcludex B-FITC binding

Structure (SMILES)	%NTCP binding
Brc1c(NC2=NCCN2)ccc2nccnc12.O=C(O)C(O)C(O)C(=O)O [Brimondine L-Tartrate]	73.3195%

Same assay, conditions: screening Myrcludex B-FITC binding, 10 µM drug

Structure (SMILES)	B-score binding assay
CN1C(C(=O)Nc2ccccn2)=C(O)c2sccc2S1(=O)=O [Tenoxicam]	-0.123
NNc1nncc2ccccc12 [Hydralazine hydrochloride]	2.175
CN1CCCN=C1/C=C/c1cccs1.O=C(O)C(O)C(O)C(=O)O [Pyrantel tartrate]	0.037
CNCC(O)c1ccc(O)c(O)c1 (stereo not drawn) [Racepinephrine HCl]	1.418
NCCc1c[nH]cn1 [Histamine dihydrochloride]	-0.808
Cc1cccc(C)c1OCC(C)N (stereo not drawn) [Mexiletine hydrochloride]	0.381
CC(C)NCC(O)COc1ccc(CCOCC2CC2)cc1 (stereo not drawn) [Betaxolol hydrochloride]	-0.195
OCCOCCN1CCN(C2=Nc3ccccc3Sc3ccccc32)CC1 [Quetiapine hemifumarate]	-0.15
Cl.OC(CCN1CCCCC1)(c1ccccc1)C1CCCCC1 (stereo not drawn) [Trihexyphenidyl-D,L Hydrochloride]	-0.957
Clc1cccc(Cl)c1N=C1NCCN1 [Clonidine hydrochloride]	-0.588

Same assay, conditions: screening Myrcludex B-FITC binding, 10 µM drug, Prestwick library

Structure (SMILES)	%NTCP binding
CN1CCCN=C1/C=C/c1cccs1.O=C(O)C(O)C(O)C(=O)O [Pyrantel tartrate]	69.5764%
Cl.OC(CCN1CCCCC1)(c1ccccc1)C1CCCCC1 (stereo not drawn) [Trihexyphenidyl-D,L Hydrochloride]	74.7688%

Target: T1, human NTCP
Assay: Screening taurocholate uptake assay (96-well, [14C]taurocholate, 10 µM drug)
Details: not given

Structure (SMILES)	%NTCP activity
Cc1c(Cl)cccc1Nc1ncccc1C(=O)O.NCCCC[C@H](N)C(=O)O [Clonixin Lysinate]	67.1033%
C/C(=C(/CCO)SSCC1CCCO1)N(C=O)Cc1cnc(C)nc1N.Cl (stereo not drawn) [Fursultiamine Hydrochloride]	80.4856%
COc1ccc2cc([C@@H](C)C(=O)[O-])ccc2c1.[Na+] [(R) -Naproxen sodium salt]	96.7204%
CNCC[C@@H](Oc1cccc2ccccc12)c1cccs1.Cl [(R)-Duloxetine hydrochloride]	92.2049%
C[C@]12CC[C@@H](O)C[C@H]1CC[C@@H]1[C@@H]2CC[C@]2(C)C(=O)CC[C@@H]12 [3-alpha-Hydroxy-5-beta-androstan-17-one]	95.0096%

Same assay, conditions: 10 min, read-out: %NTCP activity

Structure (SMILES)	remaining activity at 10 µM
CCOc1ccccc1OCC1CNCCO1 (stereo not drawn) [Viloxazine hydrochloride]	85.6%
CN1C(C(=O)Nc2ccccn2)=C(O)c2sccc2S1(=O)=O [Tenoxicam]	55.2%
NNc1nncc2ccccc12 [Hydralazine hydrochloride]	113%
Clc1ccc2nsnc2c1NC1=NCCN1 [Tizanidine HCl]	87.2%
C[C@]12CC[C@H](O)C[C@@H]1CC[C@@H]1[C@@H]2CC[C@]2(C)C(=O)CC[C@@H]12 [Epiandrosterone]	47.9%
CCCN[C@H]1CCc2nc(N)sc2C1 [Pramipexole dihydrochloride]	36.2%
CNCC(O)c1ccc(O)c(O)c1 (stereo not drawn) [Racepinephrine HCl]	57.1%
CCCc1cc(=O)[nH]c(=S)[nH]1 [Propylthiouracil]	46.4%
CS(=O)(=O)Nc1ccc([N+](=O)[O-])cc1Oc1ccccc1 [Nimesulide]	66.6%
CN(C)CCC=C1c2ccccc2C=Cc2ccccc21 [Cyclobenzaprine hydrochloride]	31.1%
c1ccc([C@H]2CN3CCSC3=N2)cc1 [Levamisole hydrochloride]	123%
CC(C)c1cccc(C(C)C)c1O [Propofol]	29.6%
O=C(O)c1cccnc1 [Niacin]	66.4%
C=CCOc1ccccc1OCC(O)CNC(C)C (stereo not drawn) [Oxprenolol hydrochloride]	131%
C[C@]12CC[C@@H](O)C[C@@H]1CC[C@@H]1[C@@H]2CC[C@]2(C)C(=O)CC[C@@H]12 [Androsterone]	85.6%
Nc1nc(=O)n([C@@H]2CS[C@H](CO)O2)cc1F [(-)-Emtricitabine]	145%
Nc1ccc(S(=O)(=O)Nc2ncccn2)cc1 [Sulfadiazine]	151%
NCCc1c[nH]cn1 [Histamine dihydrochloride]	116%
COc1ccc2cc([C@H](C)C(=O)O)ccc2c1 [Naproxen]	98.3%

Structure (SMILES)	remaining activity at 10 µM
Nc1c2c(nc3ccccc13)CCCC2 [Tacrine hydrochloride]	51.7%
N[C@@H]1C[C@H]1c1ccccc1 [Tranylcypromine hydrochloride]	115%
CNCCCC1c2ccccc2C=Cc2ccccc21 [Protriptyline hydrochloride]	65.8%
Cc1ncc(C[n+]2csc(CCO)c2C)c(N)n1 [Thiamine hydrochloride]	109%
NC(N)=Nc1nc(CSCCC(N)=NS(N)(=O)=O)cs1 [Famotidine]	61.3%
CNCCC=C1c2ccccc2CCc2ccccc21 [Nortriptyline hydrochloride]	30.5%
NCCCC(O)(P(=O)(O)O)P(=O)(O)O [Alendronate sodium]	111%
COC(=O)[C@H](c1ccccc1Cl)N1CCc2sccc2C1 [Clopidogrel]	73.4%
Cc1cccc(C)c1OCC(C)N (stereo not drawn) [Mexiletine hydrochloride]	40.4%
CN1CCCCC1CCN1c2ccccc2Sc2ccc([S+](C)[O-])cc21 (stereo not drawn) [Mesoridazine besylate]	61.5%
Cn1cnc([N+](=O)[O-])c1Sc1ncnc2nc[nH]c12 [Azathioprine]	62.1%
NCCc1ccc(O)c(O)c1 [Dopamine hydrochloride]	87.2%
NNCCc1ccccc1 [Phenelzine sulfate]	104%
CC(C)NCC(O)COc1ccc(CCOCC2CC2)cc1 (stereo not drawn) [Betaxolol hydrochloride]	88%
OCCOCCN1CCN(C2=Nc3ccccc3Sc3ccccc32)CC1 [Quetiapine hemifumarate]	50.2%
O=P1(N(CCCl)CCCl)NCCCO1 (stereo not drawn) [Cyclophosphamide]	70.3%
C#CCN[C@@H]1CCc2ccccc21 [Rasagiline]	102%
CNCCCC12CCC(c3ccccc31)c1ccccc12 [Maprotiline hydrochloride]	54.4%
Clc1cccc(Cl)c1N=C1NCCN1 [Clonidine hydrochloride]	52.8%

Same assay, conditions: screen, 10 µM drug, [14C]taurocholate uptake

Structure (SMILES)	%NTCP activity
Brc1c(NC2=NCCN2)ccc2nccnc12.O=C(O)C(O)C(O)C(=O)O [Brimondine L-Tartrate]	105.441%

Same assay, conditions: screening taurocholate uptake, 10 µM drug, Prestwick library

Structure (SMILES)	%NTCP activity
CN1CCCN=C1/C=C/c1cccs1.O=C(O)C(O)C(O)C(=O)O [Pyrantel tartrate]	138.554%
Cl.OC(CCN1CCCCC1)(c1ccccc1)C1CCCCC1 (stereo not drawn) [Trihexyphenidyl-D,L Hydrochloride]	121.392%

— paper PMC5681660, “Reduced hepatitis B and D viral entry using clinically applied drugs as novel inhibitors of the bile acid transporter NTCP” (Scientific Reports, 2017)
